One assay deals with T1, MMP-1 (Homo sapiens, UniProt P03956).
T1 sequence (P03956 100-469): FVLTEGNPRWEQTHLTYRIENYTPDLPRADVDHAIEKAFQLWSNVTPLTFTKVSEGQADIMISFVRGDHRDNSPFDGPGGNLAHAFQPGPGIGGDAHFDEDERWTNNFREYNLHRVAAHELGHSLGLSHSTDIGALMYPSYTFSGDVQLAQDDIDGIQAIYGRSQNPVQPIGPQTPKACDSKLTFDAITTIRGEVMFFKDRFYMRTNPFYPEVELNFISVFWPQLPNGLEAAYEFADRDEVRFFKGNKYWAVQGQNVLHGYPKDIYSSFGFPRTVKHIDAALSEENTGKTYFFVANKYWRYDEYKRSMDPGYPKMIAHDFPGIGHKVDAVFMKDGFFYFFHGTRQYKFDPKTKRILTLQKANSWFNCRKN
Conditions: at 20 μM.

Chains of the proteins cited; added tags and fusions are not shown. Residues count along the entry.
UniProt P08254, 100-477: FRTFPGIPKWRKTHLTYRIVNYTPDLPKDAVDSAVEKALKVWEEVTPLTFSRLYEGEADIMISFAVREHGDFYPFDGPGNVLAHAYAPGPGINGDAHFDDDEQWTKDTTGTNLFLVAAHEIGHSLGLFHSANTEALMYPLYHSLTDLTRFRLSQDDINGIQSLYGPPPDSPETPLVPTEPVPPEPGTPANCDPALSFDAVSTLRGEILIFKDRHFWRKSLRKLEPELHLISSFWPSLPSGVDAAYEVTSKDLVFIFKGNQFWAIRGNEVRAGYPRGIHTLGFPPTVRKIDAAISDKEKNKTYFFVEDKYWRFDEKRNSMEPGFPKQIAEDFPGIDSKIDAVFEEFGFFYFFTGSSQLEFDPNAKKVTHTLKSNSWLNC

The target in the next assay is T2, MMP-7 (Homo sapiens, UniProt P09237).
T2 sequence (P09237 95-267): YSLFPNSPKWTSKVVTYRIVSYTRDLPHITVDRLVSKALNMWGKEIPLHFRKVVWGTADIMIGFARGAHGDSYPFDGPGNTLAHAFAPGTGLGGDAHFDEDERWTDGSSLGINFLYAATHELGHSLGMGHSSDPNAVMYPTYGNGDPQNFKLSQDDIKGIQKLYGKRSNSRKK
Conditions: at 200 μM.

The next assay addresses MMP-3 (Homo sapiens, UniProt P08254). The assay is described as follows: biochemical. The note with it: read-out: inhibition of MMP-3.

Structures can show the parent of a compound that is named as a salt.

Usually inhibition stands for the percentage by which the read-out fell short of the control. `Nc1ccc(Oc2ccc(S(=O)(=O)CC3CS3)cc2)cc1` (stereo not drawn) [Compound 6, 4-[4-((Thiiran-2-yl)methylsulfonyl)phenoxy]benzamine.HCl salt]: the “inhibition of MMP-1” value on MMP-1 is “No inhibition”. In addition, the “inhibition of MMP-7” value against MMP-7 was “No inhibition”. Besides, the inhibition at 20 µM at MMP-3 was 3%.

The values above are taken from US9867805B2 (dated 2018).
